Experiment [1] has as its target T1, GHS-R (Rattus norvegicus, UniProt O08725).
T1 construct: host or cells: CHO cells transfected with GHS-R (Kojima et al. 1999)
The note with it: GHS-R-transfected Chinese Hamster Ovary (CHO) cells; cited from earlier work.

Chains of the proteins cited; added tags and fusions are not shown.
UniProt O08725, whole entry: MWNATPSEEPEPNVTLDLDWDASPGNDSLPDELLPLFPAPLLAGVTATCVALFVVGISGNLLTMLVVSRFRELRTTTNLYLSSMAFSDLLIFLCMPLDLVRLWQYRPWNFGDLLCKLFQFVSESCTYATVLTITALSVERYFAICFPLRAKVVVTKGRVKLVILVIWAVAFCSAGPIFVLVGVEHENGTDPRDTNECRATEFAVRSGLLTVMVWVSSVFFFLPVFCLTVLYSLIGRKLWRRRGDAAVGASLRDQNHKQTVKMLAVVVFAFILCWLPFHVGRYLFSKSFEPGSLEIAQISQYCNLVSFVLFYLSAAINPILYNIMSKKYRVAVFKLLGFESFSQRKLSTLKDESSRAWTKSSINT
UniProt Q92847, whole entry: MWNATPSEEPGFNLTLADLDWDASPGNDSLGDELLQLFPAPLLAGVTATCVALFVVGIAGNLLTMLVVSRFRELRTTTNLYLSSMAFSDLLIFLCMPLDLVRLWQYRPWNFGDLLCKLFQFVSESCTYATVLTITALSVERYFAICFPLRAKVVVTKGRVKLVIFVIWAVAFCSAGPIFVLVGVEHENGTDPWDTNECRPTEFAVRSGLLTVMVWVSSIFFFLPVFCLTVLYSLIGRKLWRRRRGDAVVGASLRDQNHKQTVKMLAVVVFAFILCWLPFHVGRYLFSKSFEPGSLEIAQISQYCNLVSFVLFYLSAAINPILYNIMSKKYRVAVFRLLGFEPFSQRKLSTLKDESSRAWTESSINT

Experiment [2] deals with T2, GHS-R (Homo sapiens, UniProt Q92847).
T2 construct: endogenous in cells; host or cells: cultured human T cells
The experiment is described as follows: Intracellular calcium mobilization in cultured human T cells (Fura-2). It is filed as cell-based. The conditions noted are these: ghrelin 100 ng/ml. The protocol: Intracellular calcium mobilization. […] Cells were incubated in PBS containing 5 μM Fura-2 AM for 30 minutes at room temperature. The cells were subsequently washed and then resuspended at 1×10^6/mL in PBS. A total of 2 mL of the cell suspension was placed in a continuously stirring cuvette at room temperature in an LS50B spectrophotometer (Perkin-Elmer, Wellesley, Mass.). Fluorescence was monitored at λex1=340 nm, λex2=380 nm, and λem=510 nm. The data are presented as the relative ratio of fluorescence excited at 340 and 380 nm.
Background: Calcium assays in cells follow changes in intracellular calcium, usually with a dye or a luminescent sensor.

Data on one substance can be found in US20080269116A1, “Methods of Inhibiting Proinflammatory Cytokine Expression Using Ghrelin” (priority 2004, published 2008).

With ghrelin, on GHS-R [1], the intracellular calcium release entry was “induce intracellular calcium release”. The “rise in intracellular [Ca^2+]” value at GHS-R [2] was “significant and specific rise in intracellular [Ca^2+]”.
